Earlier results as cited in US9737596B2, “Vaccine for the prevention of breast cancer recurrence” (The Henry M. Jackson Foundation for the Advancement of …, priority 2008, dated 2017).

Test system: patients with low to intermediate HER2/neu expression
Conditions: human, in vivo; cited from earlier work

## trastuzumab: recombinant, humanized monoclonal antibody that binds the extracellular juxtamembrane domain of HER2/neu protein
  activity in patients with low to intermediate HER2/neu expression: very limited activity
